Target: BACE1 enzyme (Homo sapiens (Human), UniProt P56817)
Assay: BACE1 Cell-Free Assay (fluorescence polarization, cleavage of synthetic APP substrate)
Assay type: biochemical
Settings: average of 2 determinations; values marked b: geometric mean of 3-9 determinations
Source text: This assay measures the inhibition of the beta-secretase enzyme as it cleaves a non-native peptide.
A synthetic APP substrate that can be cleaved by beta-secretase having N-terminal biotin and made fluorescent by the covalent attachment of Oregon Green at the Cys residue is used to assay beta-secretase activity in the presence or absence of the inhibitory compounds. […] The BACE1 enzyme is affinity purified material from conditioned media of CHO-K1 cells that have been transfected with a soluble BACE construct (BACE1deltaTM96His). Compounds are incubated in a ½ log dose response curve from a top concentration of 100 μM with BACE1 enzyme and the biotinylated fluorescent peptide in 384-well black plates (Thermo Scientific #4318). BACE1 is at a final concentration of 0.1 nM with a final concentration of peptide substrate of 150 nM in a reaction volume of 30 μL assay buffer [100 mM sodium acetate, pH 4.5 (brought to pH with acetic acid), and 0.001% Tween-20]. Plates are covered and incubated for 3 hours at 37° C. […] After a 10 minute incubation at room temperature, plates are read on a PerkinElmer EnVision for fluorescence polarization (Ex485 nm/Em530 nm). The activity of the beta-secretase enzyme is detected by changes in the fluorescence polarization that occur when the substrate is cleaved by the enzyme.

By UniProt entry, the sequences of proteins in these tests, tags left out. Residues count along the entry.
UniProt P56817, 46-457: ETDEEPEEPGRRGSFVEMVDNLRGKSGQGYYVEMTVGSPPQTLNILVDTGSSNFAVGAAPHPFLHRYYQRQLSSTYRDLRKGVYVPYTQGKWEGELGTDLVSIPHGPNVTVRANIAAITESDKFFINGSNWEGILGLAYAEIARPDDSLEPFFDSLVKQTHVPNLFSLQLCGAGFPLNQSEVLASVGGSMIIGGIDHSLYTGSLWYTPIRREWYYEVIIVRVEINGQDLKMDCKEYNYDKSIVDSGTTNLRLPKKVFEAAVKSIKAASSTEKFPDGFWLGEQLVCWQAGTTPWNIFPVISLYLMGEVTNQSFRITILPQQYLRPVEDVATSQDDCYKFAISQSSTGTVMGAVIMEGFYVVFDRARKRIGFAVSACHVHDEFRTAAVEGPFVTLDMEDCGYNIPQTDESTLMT

Row | SMILES | IC50 [µM]
1 | Cc1ccc([C@H]2C[C@H]3CSC(N)=N[C@@]3(c3ccc(F)cc3F)CO2)cn1 (relative stereo) [Example 7, rel-(4aR,6R,8aS)-8a-(2,4-Difluorophenyl)-6-(6-methylpyridin-3-yl)-4,4a,5,6,8,8a-hexahydropyrano[3,4-d][1,3]thiazin-2-amine] | 0.182
2 | NC1=N[C@@]2(c3ccc(F)cc3F)CO[C@@H](c3cncc(F)c3)C[C@H]2CS1 [Example 29, (4aR,6R,8aS)-8a-(2,4-difluorophenyl)-6-(5-fluoropyridin-3-yl)-4,4a,5,6,8,8a-hexahydropyrano[3,4-d][1,3]thiazin-2-amine] | 0.0379

Source: patent US8865706B2, “Heteroaryl-substituted hexahydropyrano[3,4-d][1,3]thiazin-2-amine compounds” (Pfizer Inc., priority 2013, dated 2014)
